From PubChem BioAssay AID1452 (National Center for Advancing Translational Sciences (NCATS), 2008)
Only a part is listed here, and it is no random draw. Some of these compounds have results that are not shown, active ones among them. Activity calls are given as the source filed them. The call rests on the fitted dose curve; in most records, active means well fitted inhibition curve with a large enough effect; inconclusive means small, poorly fitted or top-dose-only effect; inactive means flat fitted curve, though single readings scatter.
Further: nearly all actives have a fitted effect of over 55% in size.
On the % scale 0 is the no-effect control and ±100 the full control effect.

Protein sequences, listed by entry. Tags and fused reporters are not part of them.
UniProt P18054, whole entry: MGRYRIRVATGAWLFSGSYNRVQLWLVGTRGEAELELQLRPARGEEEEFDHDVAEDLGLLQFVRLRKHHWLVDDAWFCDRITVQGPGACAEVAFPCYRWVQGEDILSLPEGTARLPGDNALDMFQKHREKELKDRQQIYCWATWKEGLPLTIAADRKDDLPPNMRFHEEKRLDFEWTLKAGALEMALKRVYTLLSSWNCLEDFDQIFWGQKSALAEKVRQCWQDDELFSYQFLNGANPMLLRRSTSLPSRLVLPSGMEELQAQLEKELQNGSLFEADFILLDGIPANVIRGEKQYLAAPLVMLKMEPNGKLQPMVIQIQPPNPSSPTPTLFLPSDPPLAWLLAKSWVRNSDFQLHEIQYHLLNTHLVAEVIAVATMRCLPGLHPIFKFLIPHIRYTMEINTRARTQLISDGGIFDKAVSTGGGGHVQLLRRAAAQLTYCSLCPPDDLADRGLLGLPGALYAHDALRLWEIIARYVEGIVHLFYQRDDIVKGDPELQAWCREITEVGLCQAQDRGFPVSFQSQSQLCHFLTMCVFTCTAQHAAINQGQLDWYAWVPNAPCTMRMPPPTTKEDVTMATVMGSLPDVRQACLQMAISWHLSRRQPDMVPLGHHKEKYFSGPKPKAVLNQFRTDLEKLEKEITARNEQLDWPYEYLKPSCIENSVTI

Each molecule was assayed against Polyunsaturated fatty acid lipoxygenase ALOX12 (Homo sapiens) (UniProt P18054) (assay: qHTS Assay for Inhibitors of 12-hLO (12-human lipoxygenase)). Conditions: purified 12-hLO, xylenol orange hydroperoxide absorbance; at 57.1 µM (top of the series) unless noted.
Source text: Assay Provider: Holman, T.R., University of California, Santa Cruz Screening Center PI: Austin, C.P. Screening Center: NIH Chemical Genomics Center [NCGC] Human lipoxygenase 12hLO is a member of the closely related lipoxygenase family of enzymes which catalyze the site-specific oxidation of arachidonic acid to various hormone precursor molecules and as such is a candidate for drug development in a variety of disease areas, such as cancer and inflammation. Inhibition of 12hLO activity was screened by utilizing arachidonic acid as a substrate. The extent of hydroperoxide product formation was measured by a secondary chromogenic reaction in which xylenol orange (XO, Sigma-Aldrich, cat. number 39,818-7) reacts with the ferric ions produced from the reaction between the hydroperoxide and ferrous ions. The Fe(III)-XO complex is characterized with red-shifted absorbance at 560 nm. A purified preparation of human 12hLO was supplied by Professor Ted Holman, University of California, Santa Cruz.
Assay Protocol: Buffer: 25 mM Hepes pH 7.0, 0.01% Triton X-100. Reagents/Controls: Buffer in columns 3 and 4 as negative control (no enzyme). Substrate solution: 40 uM arachidonic acid (Sigma-Aldrich, St. Louis, MO) final concentration dispensed throughout the plate. Enzyme: 150 nM 12hLO final concentration in columns 1, 2, 5-48. Column 1 is neutral (100% activity). Column 2 contained pin-transferred titration of NDGA (nordihidroguaiaretic acid, Sigma-Aldrich, N 5023, top concentration 20 mM in DMSO, then 1:3 dilution in duplicate). (Dilution factor: 23 nL into 4 uL.) Chromogenic detection reagent (divalent iron/xylenol orange, Fe-XO): 200 uM xylenol orange plus 300 uM ferrous ammonium sulfate prepared freshly in 50 mM sulfuric acid. Assay Steps: Three uL of enzyme were dispensed to 1536-well Greiner black clear bottom plates. Compounds and controls (23 nL) were transferred via Kalypsys PinTool. The plates were incubated for 15 min at room temperature, and then 1 uL of substrate solution was added to start the reaction. After room temperature incubation for 30 minutes, 4 uL of Fe-XO solution was added to each well and the plates were incubated for 30 min. The absorbance at 405 and 573 nm were measured using ViewLux (Perkin-Elmer) High-throughput CCD imager and absorbance protocol settings. The 573-to-405 absorbance ratio was used to compute reaction progress.
In the case of `CN(C)C1CCCC1OC(=O)C(O)(c1ccccc1)c1ccccc1` (stereo not drawn), the activity change, negative = inhibition was inactive: -3.37%. For `CCN1CCCC(OC(=O)C2(O)c3ccccc3C=Cc3ccccc32)C1` (stereo not drawn), the activity change, negative = inhibition was inactive: -1.19%. For `CC(C)N1C(=O)CC2(CCN(CCOC(=O)C(O)(c3ccccc3)c3ccccc3)CC2)C1=O`, the activity change, negative = inhibition was inactive: 1.06%. With `CN1CCC[C@H](OC(=O)[C@](O)(c2ccccc2)C2CCCC2)C1` the activity change, negative = inhibition was inactive: 3.22% [at 11.4 µM]. `O=C(OC1CN2CCC1CC2)C(CO)(c1ccccc1)c1ccccc1` (stereo not drawn) was tested, and the activity change, negative = inhibition was inactive: 8.8%. `CN1CC[C@H](OC(=O)[C@](O)(c2ccccc2)C2CCCC2)C1` was tested, and the activity change, negative = inhibition was inactive: -0.0666% [at 11.4 µM]. With `C=C(C)C#C[C@@](O)(C(=O)OC1CCN(C)CC1)c1ccccc1` the activity change, negative = inhibition was inactive: 2.1% [at 11.4 µM]. In the case of `CN(C)c1cccc(C(=O)NCC2(N(C)C)CCCCC2)c1`, the activity change, negative = inhibition was inactive: -0.699%.
